Reference: ChEMBL document CHEMBL5096238 (J Med Chem, 2022)

Sequences of proteins named here, by UniProt entry; tags and fusion partners are left off. A change or cut given only in a name is not applied to a line headed by its entry.
UniProt P31751: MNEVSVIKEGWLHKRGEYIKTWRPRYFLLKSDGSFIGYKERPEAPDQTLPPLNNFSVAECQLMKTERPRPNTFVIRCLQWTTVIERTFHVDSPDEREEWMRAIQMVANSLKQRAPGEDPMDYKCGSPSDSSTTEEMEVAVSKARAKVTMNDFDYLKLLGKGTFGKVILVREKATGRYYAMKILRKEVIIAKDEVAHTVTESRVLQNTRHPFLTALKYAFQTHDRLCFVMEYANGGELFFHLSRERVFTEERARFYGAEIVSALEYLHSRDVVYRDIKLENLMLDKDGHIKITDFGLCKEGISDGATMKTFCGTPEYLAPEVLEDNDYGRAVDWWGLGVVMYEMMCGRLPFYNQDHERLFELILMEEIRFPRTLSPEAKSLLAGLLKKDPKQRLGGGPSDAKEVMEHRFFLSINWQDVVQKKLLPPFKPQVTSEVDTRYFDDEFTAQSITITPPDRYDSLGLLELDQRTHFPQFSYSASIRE
UniProt Q9Y243: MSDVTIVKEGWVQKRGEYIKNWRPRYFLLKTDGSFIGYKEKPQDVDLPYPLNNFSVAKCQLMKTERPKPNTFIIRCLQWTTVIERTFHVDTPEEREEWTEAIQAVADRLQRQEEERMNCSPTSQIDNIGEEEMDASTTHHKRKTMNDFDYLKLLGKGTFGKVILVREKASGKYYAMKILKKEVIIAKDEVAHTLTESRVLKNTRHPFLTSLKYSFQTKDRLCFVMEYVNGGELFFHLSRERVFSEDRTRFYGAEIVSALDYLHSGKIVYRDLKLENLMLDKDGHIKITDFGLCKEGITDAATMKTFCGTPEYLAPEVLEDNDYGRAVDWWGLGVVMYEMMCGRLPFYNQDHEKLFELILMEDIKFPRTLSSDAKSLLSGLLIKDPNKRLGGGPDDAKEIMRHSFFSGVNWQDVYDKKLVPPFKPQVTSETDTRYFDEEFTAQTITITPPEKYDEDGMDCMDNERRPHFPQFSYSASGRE
UniProt P31749: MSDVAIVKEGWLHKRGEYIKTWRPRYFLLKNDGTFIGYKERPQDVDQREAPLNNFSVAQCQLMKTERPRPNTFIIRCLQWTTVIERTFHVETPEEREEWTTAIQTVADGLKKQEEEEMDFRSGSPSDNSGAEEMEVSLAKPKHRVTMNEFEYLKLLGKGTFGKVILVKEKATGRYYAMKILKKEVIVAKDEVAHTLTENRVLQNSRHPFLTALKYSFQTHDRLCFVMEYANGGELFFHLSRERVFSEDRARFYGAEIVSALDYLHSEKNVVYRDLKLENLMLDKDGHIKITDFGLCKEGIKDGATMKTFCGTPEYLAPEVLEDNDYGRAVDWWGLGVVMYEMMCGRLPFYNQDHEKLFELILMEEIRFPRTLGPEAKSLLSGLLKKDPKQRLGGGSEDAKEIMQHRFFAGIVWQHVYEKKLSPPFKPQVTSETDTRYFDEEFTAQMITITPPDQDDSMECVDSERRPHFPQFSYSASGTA

Experiments:
[1] = biological target: T1, Tyrosine-protein kinase receptor UFO (Homo sapiens) (UniProt P30530); conditions: dose 1000.0 nM
T1 sequence (whole entry): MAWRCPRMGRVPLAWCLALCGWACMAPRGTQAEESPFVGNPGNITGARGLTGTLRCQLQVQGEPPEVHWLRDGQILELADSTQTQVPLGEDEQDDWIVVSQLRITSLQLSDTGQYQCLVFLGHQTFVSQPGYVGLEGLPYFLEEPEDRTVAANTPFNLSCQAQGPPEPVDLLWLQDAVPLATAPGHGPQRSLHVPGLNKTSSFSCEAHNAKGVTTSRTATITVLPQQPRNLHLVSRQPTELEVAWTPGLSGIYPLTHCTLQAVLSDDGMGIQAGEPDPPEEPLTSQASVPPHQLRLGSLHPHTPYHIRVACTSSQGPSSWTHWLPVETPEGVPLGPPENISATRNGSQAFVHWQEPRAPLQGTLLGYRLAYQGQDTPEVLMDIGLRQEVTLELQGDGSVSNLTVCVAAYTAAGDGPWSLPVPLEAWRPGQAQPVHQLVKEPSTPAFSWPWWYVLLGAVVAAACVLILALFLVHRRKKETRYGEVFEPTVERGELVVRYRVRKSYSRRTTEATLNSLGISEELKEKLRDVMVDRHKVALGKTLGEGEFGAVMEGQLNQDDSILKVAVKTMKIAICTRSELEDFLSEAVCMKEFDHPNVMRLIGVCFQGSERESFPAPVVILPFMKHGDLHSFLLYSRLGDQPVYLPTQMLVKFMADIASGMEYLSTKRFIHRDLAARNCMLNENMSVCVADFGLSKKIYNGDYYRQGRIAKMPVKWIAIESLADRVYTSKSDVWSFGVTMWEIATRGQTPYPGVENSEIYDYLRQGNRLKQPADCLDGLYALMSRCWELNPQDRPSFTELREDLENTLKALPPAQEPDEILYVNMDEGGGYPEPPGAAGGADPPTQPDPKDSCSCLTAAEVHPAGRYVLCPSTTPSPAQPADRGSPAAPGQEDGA

[2] = biological target: Serine/threonine-protein kinase AKT (Homo sapiens) (UniProt P31751+Q9Y243+P31749); conditions: Hs746T, dose 1.1-30 nM, time 12.0 hrs

Row | inhibition [1] [%] | inhibition [2] | Compound
1 | 9 | Dde | O=C1NCCCCn2cc(cn2)-c2cnc3ccc(cc3c2)CCn2nc(ccc2=O)-c2ccc1c(C(F)(F)F)c2
2 | 8 | – | CNC(=O)c1ccc(-c2ccc(=O)n(CCc3ccc4ncc(-c5cnn(C6CCOCC6)c5)cc4c3)n2)cc1C(F)(F)F
